By IC50 is commonly meant the concentration at which inhibition is half-maximal. Read a high IC50 as weaker potency in that assay.

Chains of the proteins cited; added tags and fusions are not shown. Lines headed by an entry give the natural chain unless they say otherwise; changes in a name come on top.
UniProt P28845: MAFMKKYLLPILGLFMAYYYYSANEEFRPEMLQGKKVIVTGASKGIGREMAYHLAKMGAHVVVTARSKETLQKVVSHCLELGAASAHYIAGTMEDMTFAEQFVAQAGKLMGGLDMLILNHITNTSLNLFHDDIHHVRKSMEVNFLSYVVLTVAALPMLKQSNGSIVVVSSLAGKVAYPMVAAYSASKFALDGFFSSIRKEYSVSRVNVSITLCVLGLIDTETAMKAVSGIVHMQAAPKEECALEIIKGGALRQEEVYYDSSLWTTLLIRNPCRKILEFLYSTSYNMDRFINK

Molecules are shown by their SMILES.

For test [1], the target named is human 11β-HSD1 (Homo sapiens, UniProt P28845). Nature of the test: HTRF assay, human 11β-HSD1. In kind it is biochemical. Background: TR-FRET usually uses a lanthanide donor and a delayed reading to cut background.
In test [2] the test system is 11β-HSD1, 11β-HSD2. The conditions noted are these: cited from earlier work.

The compound `CC1(C(=O)O)CCC2(C)CCC3(C)C(=CC(=O)C4C5(C)CCC(OC(=O)CCC(=O)O)C(C)(C)C5CCC43C)C2C1` (centres unmarked) came in with an IC50 in test [1] of 753 nM.

For `N#Cc1ccc(-c2ccc(S(=O)(=O)Nc3cccc(N)n3)cc2)cc1`, in test [2], the Specificity is 11β- HSD1 > 2.

The values are drawn from US10039772B2, “Methods and compositions for treating alcohol use disorders” (priority 2015, dated 2018).
